Data on 67 compounds can be found in PubChem BioAssay AID463104 (Sanford-Burnham Center for Chemical Genomics, 2010).

Only a part is listed here, and it is no random draw. The source made the active and inactive calls.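 Rule for the calls: active = versus positive control, 20 µM dose yields 30% or more activation; inactive = the rest.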

The nature of this test: IRE1-XBP1 pathway stimulators – cell-based, CHO-XBP1 luciferase reporter, luminescence, uHTS, primary screen (AID 463104).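 Note: 100% = tunicamycin at 10 µg/mL and 0% = DMSO only wells.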 Conditions: IRE1-XBP1 UPR activation, at 20 µM, active compounds read high, percent of tunicamycin response, DMSO as zero. Put shortly:
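Assay system: CHO-XBP1 luciferase reporter cells; Schedule: 6 h treatment, 37 °C; Detection: glow luminescence from Steady-Glo reagent; Benchmarks: high control tunicamycin 10 µg/mL final, low control DMSO vehicle only.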
With `COc1cc(OC)c(C(=O)NCC2(N(C)C)CCCCC2)cc1OC`, the activation was inactive: -0.06%.

Regarding `O=C(NCC1(N2CCOCC2)CCCCC1)c1cc(F)c(F)cc1Cl`, the activation was inactive: -0.74%. Under `COc1ccc(CN(CCCl)CCCl)cc1Cl` stands inactive: 2.98%; under `CN(C)c1cccc(C(=O)NCC2(N3CCCCC3)CCCCC2)c1`, inactive: 1.17%; under `CC(C)c1ccc(NC2CCN(C(=O)OC(C)(C)C)CC2)cc1`, inactive: -2.93%. For the compound `O=C(NCC1(N2CCCCC2)CCCCC1)c1cncc(Br)c1`, the activation is inactive: -1.97%.

As for `CN1CCC(Nc2cccc(F)c2)CC1`, the activation was inactive: -2.46%. Under `CSc1ccc(C(=O)NCC2(N3CCOCC3)CCCCC2)cc1` stands inactive: -2.24%; under `O=C(NCC1(N2CCCCC2)CCCCC1)c1cccc([N+](=O)[O-])c1`, inactive: -1.69%; under `CCN1CCC(Nc2ccc(Cl)cc2)CC1`, inactive: -4.88%. Under `N#CC1(Nc2ccccc2)CCN(CCc2ccccc2)CC1` stands inactive: -8.56%; under `O=C(NCC1(N2CCCCC2)CCCCC1)c1ccc(OC(F)F)cc1`, inactive: -3.54%; under `CN1CCN(CCOC(=O)C(O)(c2ccccc2)c2ccccc2)CC1`, inactive: -2.61%. Under `CC(C)c1ccc(C(=O)NCC2(N3CCOCC3)CCCCC2)cc1` stands inactive: -0.51%; under `COc1ccc(NC2CCN(C(=O)OC(C)(C)C)CC2)cc1`, inactive: -1.78%.

On to `COc1cc(C(=O)NCC2(N3CCCCC3)CCCCC2)ccc1OC(F)F`, for which the activation is inactive: -3.52%. The same measure for `O=C(NCC1(N2CCOCC2)CCCCC1)c1cc(=O)[nH]c2ccccc12`: inactive: -1.82%.

For the compound `O=C(NCC1(N2CCCCC2)CCCCC1)c1cccc(C(F)(F)F)c1`, the activation is inactive: -3.08%.

Regarding `O=C(NCC1(N2CCCCC2)CCCCC1)c1ccc(F)cc1`, the activation is inactive: 4.01%. The same measure for `CCCCOc1ccc(C(=O)NCC2(N3CCOCC3)CCCCC2)cc1`: inactive: 0.29%; for `COc1ccc(NC2CCN(CCc3ccccc3)CC2)c(OC)c1`: inactive: -2.41%; for `CCOC(=O)N1CCC(Nc2ccc(F)cc2)CC1`: inactive: -2.45%. Under `CCOc1ccc(C)cc1CN(CCCl)CCCl` stands inactive: -2.34%; under `CCOC(=O)N1CCC(Nc2cccc(C)c2)CC1`, inactive: -1.04%. With `Cc1ccc(OCC(C)C)c(CN(CCCl)CCCl)c1`, the activation was inactive: -2.49%. Under `CSc1ccccc1C(=O)NCC1(N2CCCCC2)CCCCC1` stands inactive: -2.62%; under `O=C(NCC1(N2CCCCC2)CCCCC1)c1ccc(=O)[nH]c1`, inactive: -3.74%; under `O=C(NCC1(N2CCCCC2)CCCCC1)c1cccs1`, inactive: -0.07%.

As for `COc1ccc(C(=O)NCC2(N3CCCCC3)CCCCC2)cc1`, the activation was inactive: -0.38%.

In the case of `CC(C)(C)OC(=O)N1CCC(N(C(=O)c2ccccc2)c2ccc(F)cc2)CC1`, the activation was inactive: -5.7%. The same measure for `COc1ccc(C(=O)NCC2(N3CCCCC3)CCCCC2)c(OC)c1OC`: inactive: -2.35%; for `CCOC(=O)N1CCC(Nc2ccc(OC)cc2)CC1`: inactive: 0.87%. Under `O=C(OC1CN2CCC1CC2)C1c2ccccc2Oc2ccccc21` (configuration not stated) stands inactive: 1.77%; under `N#CC1(Nc2ccccc2)CCN(Cc2ccccc2)CC1`, inactive: -3.25%. The same measure for `O=C(NCC1(N2CCCCC2)CCCCC1)c1ccc(Cl)s1`: inactive: 2.5%; for `COc1ccc(Cl)cc1C(=O)NCC1(N2CCOCC2)CCCCC1`: inactive: -1.31%.

Take `O=C(NCC1(N2CCOCC2)CCCCC1)c1cc2ccccc2o1`: the activation is inactive: -4.15%. Turning to `O=C(NCC1(N2CCCCC2)CCCCC1)c1ccc(Cl)nc1`, the activation was inactive: -2.29%. Under `Cc1cc(C)cc(N(C(=O)c2ccccc2)C2CCN(C(=O)OC(C)(C)C)CC2)c1` stands inactive: -8.6%; under `CCCOc1ccc(C(=O)NCC2(N(C)C)CCCCC2)cc1`, inactive: 2.72%; under `CC(C)(C)OC(=O)N1CCC(Nc2ccccc2)CC1`, inactive: 2.69%.

`O=C(O)C1(Nc2ccccc2)CCN(Cc2ccccc2)CC1`: the activation was inactive: 1.23%. The same measure for `CCOc1ncccc1C(=O)NCC1(N2CCOCC2)CCCCC1`: inactive: 0.17%. The same measure for `CN1CCC(Nc2ccc(F)c(Cl)c2)CC1`: inactive: -1.02%; for `CCCOc1ccc(C)cc1CN(CCCl)CCCl`: inactive: -1.64%. For `CN1CCC(Nc2ccc(Cl)cc2)CC1`, the activation is inactive: 0.56%. Under `CCC(CO)(C(=O)OC1CN2CCC1CC2)c1ccccc1` (configuration not stated) stands inactive: 0.09%; under `COc1cc(OC)cc(C(=O)NCC2(N3CCOCC3)CCCCC2)c1`, inactive: -1.83%.

In the case of `COc1cccc(C(=O)N(c2cc(C)cc(C)c2)C2CCN(C(=O)OC(C)(C)C)CC2)c1`, the activation was inactive: -7.14%. With `Cc1ccc(C(=O)NCC2(N3CCCCC3)CCCCC2)o1`, the activation was inactive: 2.02%.

With `Fc1ccccc1NC1CCN(Cc2ccccc2)CC1`, the activation is inactive: 0.26%. The same measure for `COc1cc(OC)cc(C(=O)NCC2(N3CCCCC3)CCCCC2)c1`: inactive: -0.52%. The same measure for `O=C(NCC1(N2CCCCC2)CCCCC1)c1ccco1`: inactive: 2.84%. As to `CN(C)c1ccc(C(=O)NCC2(N3CCCCC3)CCCCC2)cc1`, the activation was inactive: 0.44%.

Take `CCN1CCC(Nc2cccc(F)c2)CC1`: the activation is inactive: -1.96%. The same measure for `CC(C)(C)OC(=O)N1CCC(N(C(=O)c2ccccc2)c2ccc(Cl)cc2)CC1`: inactive: -3.89%; for `N#Cc1ccc(C(=O)NCC2(N3CCCCC3)CCCCC2)cc1`: inactive: -1.69%; for `c1ccc(CN2CCC(Nc3ccccc3)CC2)cc1`: inactive: -1.17%. The same measure for `CCCN1CCC(Nc2cc(OC)cc(OC)c2)CC1`: inactive: -2.97%. Under `CN(C)C1(CNC(=O)c2cccc(C#N)c2)CCCCC1` stands inactive: -4.2%; under `COc1ccc(C(=O)NCC2(N3CCOCC3)CCCCC2)cc1OC`, inactive: -3.34%. On to `O=C(NCC1(N2CCOCC2)CCCCC1)c1cc(Br)ccc1Cl`, for which the activation is inactive: 0.83%. Regarding `COc1cc(C(=O)NCC2(N3CCOCC3)CCCCC2)cc(OC)c1C`, the activation was inactive: -1.12%. Under `O=C(OC1CN2CCC1CC2)C1c2ccccc2C=Cc2ccccc21` (configuration not stated) stands inactive: 0.44%; under `CCc1cc(C(=O)NCC2(N3CCCCC3)CCCCC2)sc1C`, inactive: 5.14%. In the case of `N/C(=N\O)c1c(N)no[n+]1[O-]`, the activation is inactive: -0.99%. The same measure for `CCOC(=O)N1CCC(Nc2ccc(C)cc2)CC1`: inactive: -2.31%.
